Data taken from paper PMC8411975, “Frag4Lead: growing crystallographic fragment hits by catalog using fragment-guided template docking” (Acta Crystallographica. Section D, Structural Biology, 2021).

Molecular target: T1, endothiapepsin (EP) (Cryphonectria parasitica, UniProt P11838)
T1 sequence (P11838 90-419): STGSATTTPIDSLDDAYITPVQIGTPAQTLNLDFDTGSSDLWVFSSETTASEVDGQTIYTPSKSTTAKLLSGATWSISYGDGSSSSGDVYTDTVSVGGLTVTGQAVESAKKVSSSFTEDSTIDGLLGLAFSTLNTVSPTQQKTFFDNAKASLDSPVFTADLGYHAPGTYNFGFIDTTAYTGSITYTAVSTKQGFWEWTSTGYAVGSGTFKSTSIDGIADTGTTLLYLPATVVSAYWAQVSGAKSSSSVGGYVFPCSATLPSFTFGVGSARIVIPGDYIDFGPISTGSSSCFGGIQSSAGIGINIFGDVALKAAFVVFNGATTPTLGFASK
Experiment: Isothermal titration calorimetry (direct or SAP114-displacement titration) against EP
Assay type: binding
Details: 0.1 M sodium acetate pH 4.6, 3%(v/v) DMSO; direct or displacement titration (Table S2); FU5-1 (as HCl salt, 0.1% Tween 20) and FU5-2 in triplicate, others n = 1; read-out: Kd determined by ITC
Protocol: ITC experiments were conducted similarly to the procedure desribed by Schiebel, Radeva et al. (2016[▸]) on a MicroCal ITC200 (Malvern) instrument. All buffer solutions for ITC were prepared with the same batch of buffer as used to isolate the batch of EP. Details of the ITC experiments, including the protein and ligand concentrations for each experiment, are listed in Supplementary Table S2. […] All displacement titrations were conducted as single measurements, except for that of FU5-2 (n = 3). The affinities of the stronger binding follow-up ligands were determined by direct ITC titrations. For this, 1 mM compound in a buffer solution consisting of 0.1 M sodium acetate pH 4.6, 3%(v/v) DMSO was titrated into the same buffer additionally containing 50 µM EP to a final stoichiometry of N = 4.
The obtained thermogram peaks of all titrations (Supplementary Fig. S4) were integrated with Nitpic 1.1.8 (Keller et al., 2012[▸]). Subsequently, fitting of a single-site binding-model isotherm was performed using SEDPHAT 10.58d (Houtman et al., 2007[▸]). For the errors of the fit, see Supplementary Table S3. […] During the fit, ΔH was corrected for the heat of dilution, which was individually fitted for each experiment. The stoichiometry was arbitrarily fixed at the anticipated stoichiometry of N = 1 as appropriate for the present low c-value titrations (Rühmann et al., 2015[▸]).
Table S2. […]

Structure (SMILES): NC1=N/C(=N\Nc2ccccc2)c2ccccc21 [FU5-1]
- Kd: 6.4 µM
